# From PubChem BioAssay AID504444 (National Center for Advancing Translational Sciences (NCATS), 2011)
# The list shows a part of the results, in another mix than the full data. Results filed as inconclusive are left out. Where a call stands in place of a potency, no number is given. Calls of active or inactive are those of the source. The call rests on the fitted dose curve; in most records, active means well fitted inhibition curve with a large enough effect; inconclusive means small, poorly fitted or top-dose-only effect, or effect the other way; inactive means flat fitted curve, though single readings scatter.
# Experiment: Nrf2 qHTS screen for inhibitors; further: nearly all actives have a fitted effect of over 60% in size
# Settings: A549 ARE-Fluc reporter, luciferase luminescence, 18-24 h; series mostly up to 46 µM
# Potency means the concentration at half of the fitted maximal effect.
row,Compound,Potency
1,Cc1ccc(C)c(NP(C)(=O)Oc2ccccc2)c1 (centres undefined),inactive
2,Cc1cc(C)cc(OP(C)(=O)Nc2ccccn2)c1 (centres undefined),inactive
3,CP(=O)(Nc1cccc(Br)c1)Oc1ccccc1 (centres undefined),inactive
4,CCOC(=O)c1ccc(NP(C)(=O)Oc2cc(C)cc(C)c2)cc1 (centres undefined),inactive
5,Cc1cc(C)cc(OP(C)(=O)Nc2ccc(C)cc2C)c1 (centres undefined),inactive
6,CP(=O)(Nc1ccccc1F)Oc1ccccc1 (centres undefined),inactive
7,CC(C)c1ccc(OP(C)(=O)Nc2ccc(SC(F)(F)F)cc2)cc1 (centres undefined),active: 18.4 µM
8,Cc1c([N+](=O)[O-])cc([N+](=O)[O-])c(Br)c1[N+](=O)[O-],inactive
9,CP(=O)(Nc1ccccc1)Oc1ccc(F)cc1 (centres undefined),inactive
10,CCCCCOc1ccc(NP(C)(=O)Oc2ccc(Cl)cc2Cl)cc1 (centres undefined),inactive
11,CCOC(=O)c1ccc(NP(C)(=O)Oc2ccc(F)cc2)cc1 (centres undefined),inactive
12,COc1ccc(OP(C)(=O)Nc2ccc(SC(F)(F)F)cc2)cc1 (centres undefined),inactive
13,O=[N+]([O-])c1ccc(OP2(=O)COCCO2)cc1 (centres undefined),inactive
14,Cc1cc(-c2cccc3ccccc23)c(C)cn1.O=[N+]([O-])c1cc([N+](=O)[O-])c(O)c([N+](=O)[O-])c1,inactive
15,Cc1c(C(c2ccc3c(c2)OCO3)c2c(C)n(C)n(-c3ccccc3)c2=O)c(=O)n(-c2ccccc2)n1C.O=[N+]([O-])c1cc([N+](=O)[O-])c(O)c([N+](=O)[O-])c1,inactive
16,CN(C)CCOC(=O)C(O)(c1ccccc1)C1CCCCC1 (centres undefined),inactive
17,COc1ccc(NP(C)(=O)Oc2ccccc2OC)cc1 (centres undefined),inactive
18,CP(=O)(Nc1ccc2c(c1)OCCO2)Oc1ccccc1 (centres undefined),inactive
19,CP(=O)(Nc1ccc(SC(F)(F)F)cc1)Oc1ccc(F)cc1 (centres undefined),inactive
20,CCOP(C)(=S)SCC(=O)NC(C)(CC)C(=O)O (centres undefined),inactive
21,COc1ccccc1OP(C)(=O)Nc1ccccc1Br (centres undefined),inactive
22,CC(C)(C)c1ccc(OP(C)(=O)O)cc1,inactive

row,Compound,Potency
1,CP(=O)(Nc1ccc(Cl)cc1)Oc1ccc(F)cc1 (centres undefined),inactive
2,CN(C)C(=O)c1c([N+](=O)[O-])cc([N+](=O)[O-])cc1[N+](=O)[O-],inactive
3,CCN(CC)CC(O)COC(=O)C(O)(c1ccccc1)C1CCCCC1 (centres undefined),inactive
4,COc1ccc(OP(C)(=O)Nc2ccc(Br)cc2)cc1 (centres undefined),inactive
5,COc1ccccc1OP(C)(=O)Nc1c(C)n(C)n(-c2ccccc2)c1=O (centres undefined),inactive
6,O=C(OCCCN1CCCC1)C(O)(c1ccccc1)C1CCCCC1 (centres undefined),inactive
7,CP(=O)(Oc1ccccc1)N1CCOC1=O (centres undefined),inactive
8,CCc1ccc(OP(C)(=O)Nc2cccnc2)cc1 (centres undefined),inactive
9,Nc1ccc2c(ccc3cccnc32)n1.O=[N+]([O-])c1cc([N+](=O)[O-])c(O)c([N+](=O)[O-])c1,inactive
10,CCOC(=O)c1ccc(NP(C)(=O)Oc2ccc(Cl)cc2)cc1 (centres undefined),inactive
11,CP(=O)(Nc1ccc(Cl)cc1Cl)Oc1ccccc1 (centres undefined),inactive
12,CP(=O)(OCCOc1ccccc1)OCCOc1ccccc1,inactive
13,Cc1cc(C)cc(OP(C)(=O)Nc2cccc(C(F)(F)F)c2)c1 (centres undefined),active: 23.1 µM
14,COc1ccccc1OP(C)(=O)Nc1ccc(C)c(C)c1 (centres undefined),inactive
15,COc1ccc(OP(C)(=O)Nc2ccccc2Br)cc1 (centres undefined),inactive
16,Cc1c(NP(C)(=O)Oc2ccc(C(C)C)cc2)c(=O)n(-c2ccccc2)n1C (centres undefined),inactive
17,CP(=O)(Nc1ccccn1)Oc1ccccc1 (centres undefined),inactive
18,COc1ccccc1OP(C)(=O)Nc1ccc(C)cc1C (centres undefined),inactive
19,CCc1ccc(OP(C)(=O)O)cc1,inactive
20,COc1ccccc1OP(C)(=O)Nc1ccc(Br)cc1 (centres undefined),inactive
21,COc1ccc(OP(C)(=O)Nc2ccccn2)cc1 (centres undefined),inactive
22,CN(C)CCOC(=O)C(O)(c1ccccc1)C1CCCC1 (centres undefined),inactive
